Results as given in patent publication US20230382863A1, “MEK INHIBITORS AND USES THEREOF” (Ikena Oncology, Inc., priority 2022, published 2023).

System: cancer cell lines
Experiment: In vitro MEK inhibitor drug combinations (Cell Titer Glo, Loewe synergy)
Assay type: cell-based
Conditions: combination with I-2; HCA7, HCT-116, SW620, SW48, CACO2, DLD-1, RKO, HT-29; 5 days
Procedure: Cell viability was determined by Cell Titer Glo assay. […] A normalized Loewe sum of synergy score of >10 was considered synergistic, <10, but >−10 additive, and <−10 antagonistic.

Substance: Cetuximab: monoclonal antibody to EGFR (ERBITUX), tested in combination with I-2
- Loewe Synergy Score > 10: 6/8 cell lines
